## Measured affinities in a library of Ab-91 heavy chain variants

All variants were tested on one target, the spike HR2 peptide PDVDLGDISGINAS (SARS-CoV-2).

Ab-91 is the parent antibody, in scFv form: VL, then the linker GGGGSGGGGSGGGGS, then VH. The light chain is unchanged in all variants.
VL: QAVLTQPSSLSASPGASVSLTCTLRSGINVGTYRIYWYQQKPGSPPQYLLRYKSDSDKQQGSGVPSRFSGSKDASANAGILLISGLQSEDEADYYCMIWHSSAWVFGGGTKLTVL
VH: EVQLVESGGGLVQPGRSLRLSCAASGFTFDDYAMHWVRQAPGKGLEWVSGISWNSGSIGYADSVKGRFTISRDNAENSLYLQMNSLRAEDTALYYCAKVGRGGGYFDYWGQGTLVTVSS

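The starting antibody came from a phage panning campaign against this peptide. Variants in AAYL51 differ from the parent at up to three CDR positions; double and triple changes were sampled at random. The scFvs were displayed on barcoded MATa yeast, the peptide on MATalpha yeast. Mating (16 h, 30 °C) was followed by selection of diploids and sequencing of their barcodes. The ratio of observed to expected reads was calibrated, replicate by replicate, on BCL2-family standards whose Kd was known from biolayer interferometry. Mating was done three times.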

The whole VH of each variant is written out. This list gathers variants with a substitution at Y60 (VH, numbered from residue 1). Kd is apparent (estimated from mating counts) and averaged on the log scale over replicates with a signal. Smaller is tighter. A pair that was not seen in any replicate is written "not detected"; this usually means weak binding, but a binder can also be missed.

VH	apparent Kd	replicates with signal
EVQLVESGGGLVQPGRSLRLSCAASGFTFDDYAMHWVRQAPGKGLEWVSGISWFSSSIGEADSVKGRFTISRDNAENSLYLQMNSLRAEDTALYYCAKVGRGGGYFDYWGQGTLVTVSS	1.5 mM	1/3
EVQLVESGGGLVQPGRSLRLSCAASGFTFDDYCMHWVRQAPGKGLEWVSGISWNSGSIGLDDSVKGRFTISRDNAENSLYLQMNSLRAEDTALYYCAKVGRGGGYFDYWGQGTLVTVSS	84 µM	1/3
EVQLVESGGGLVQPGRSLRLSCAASGFTFDDYHMHWVRQAPGKGLEWVSGISWNSGSIGVADSVKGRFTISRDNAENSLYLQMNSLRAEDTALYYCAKVGRGGGYFDYWGQGTLVTVSS	not detected	0/3
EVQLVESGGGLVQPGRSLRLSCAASGFTFDDYAGHWVRQAPGKGLEWVSGISWNSGSIGHADSVWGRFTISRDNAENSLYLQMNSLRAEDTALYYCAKVGRGGGYFDYWGQGTLVTVSS	68 µM	2/3
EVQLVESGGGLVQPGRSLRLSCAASGFTFDCYAMHWVRQAPGKGLEWVSGISWNSGSIGIADSVKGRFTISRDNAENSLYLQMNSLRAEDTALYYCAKVPRGGGYFDYWGQGTLVTVSS	12 µM	1/3
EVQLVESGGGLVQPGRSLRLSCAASGFTFDDSAMHWVRQAPGKGLEWVSGISWNSGSIGIADSVKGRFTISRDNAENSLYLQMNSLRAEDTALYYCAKVGRGGGYLDYWGQGTLVTVSS	not detected	0/3
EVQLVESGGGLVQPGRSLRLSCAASGFTFHDYAMHWVRQAPGKGLEWVSGISWNSGSIGRADSVKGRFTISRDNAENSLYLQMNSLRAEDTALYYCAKVGRGGGYFDYWGQGTLVTVSS	not detected	0/3
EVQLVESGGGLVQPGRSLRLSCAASGFTFDDYAMHWVRQAPGKGLEWVSGISWQSGRIGFADSVKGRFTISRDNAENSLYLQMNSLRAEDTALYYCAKVGRGGGYFDYWGQGTLVTVSS	not detected	0/3
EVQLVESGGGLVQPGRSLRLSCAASGFTFDDYAMHWVRQAPGKGLEWVSGISWNSGSIGAWDSVKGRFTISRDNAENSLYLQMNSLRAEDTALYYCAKVGRGGGYVDYWGQGTLVTVSS	not detected	0/3
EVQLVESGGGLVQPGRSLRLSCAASGFTFDDYAMHWVRQAPGKGLEWVSGISWISGSIGMADSVKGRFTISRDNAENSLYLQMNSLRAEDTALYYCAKVGRGGGYFDYWGQGTLVTVSS	not detected	0/3
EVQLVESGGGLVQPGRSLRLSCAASGFTFDDYAMHWVRQAPGKGLEWVSGIEWNSGSIGIADSSKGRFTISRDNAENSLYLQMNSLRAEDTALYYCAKVGRGGGYFDYWGQGTLVTVSS	46 µM	3/3
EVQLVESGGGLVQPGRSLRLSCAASGFTFFDYAMHWVRQAPGKGLEWVSGISWNPGSIGVADSVKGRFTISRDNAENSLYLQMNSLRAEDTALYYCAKVGRGGGYFDYWGQGTLVTVSS	43 µM	2/3
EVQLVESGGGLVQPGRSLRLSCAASGFTSDDYAMHWVRQAPGKGLEWVSGISWNSGSIGPMDSVKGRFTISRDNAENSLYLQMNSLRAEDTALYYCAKVGRGGGYFDYWGQGTLVTVSS	36 µM	1/3
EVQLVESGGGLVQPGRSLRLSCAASGFTFDDYAMHWVRQAPGKGLEWVSGISWNSGSLGFADSVKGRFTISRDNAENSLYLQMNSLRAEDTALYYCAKVGRGGGYFDYWGQGTLVTVSS	6.8 µM	2/3
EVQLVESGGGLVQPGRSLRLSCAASYFTDDDYAMHWVRQAPGKGLEWVSGISWNSGSIGVADSVKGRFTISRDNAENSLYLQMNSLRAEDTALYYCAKVGRGGGYFDYWGQGTLVTVSS	not detected	0/3
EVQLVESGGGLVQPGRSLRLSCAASGFTFDDYAMHWVRQAPGKGLEWVSGISWNSGSIREADSVKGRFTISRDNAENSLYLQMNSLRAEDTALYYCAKEGRGGGYFDYWGQGTLVTVSS	not detected	0/3
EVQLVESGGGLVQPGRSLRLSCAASGFTFDDYAMVWVRQAPGKGLEWVSGISWNSGSIGKDDSVKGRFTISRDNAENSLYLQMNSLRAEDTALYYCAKVGRGGGYFDYWGQGTLVTVSS	120 µM	1/3
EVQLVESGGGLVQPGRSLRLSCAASGFIFDDYAMHWVRQAPGKGLEWVSGISWNSGSIGLADSVKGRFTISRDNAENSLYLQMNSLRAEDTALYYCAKVGRGGGYFDIWGQGTLVTVSS	not detected	0/3

The last 2 entries again:

VH	apparent Kd	replicates with signal
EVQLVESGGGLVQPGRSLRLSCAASGFTFDDYAMVWVRQAPGKGLEWVSGISWNSGSIGKDDSVKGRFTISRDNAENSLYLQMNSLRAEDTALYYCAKVGRGGGYFDYWGQGTLVTVSS	120 µM	1/3
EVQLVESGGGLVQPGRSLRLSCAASGFIFDDYAMHWVRQAPGKGLEWVSGISWNSGSIGLADSVKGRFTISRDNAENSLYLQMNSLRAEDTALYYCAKVGRGGGYFDIWGQGTLVTVSS	not detected	0/3

Empty control strains, which show no peptide, gave a signal in 21% of pairings with library AAYL51; the median was 34 µM and 95% of these signals were weaker than 1.8 µM. No background was subtracted.

Source: Engelhart et al. 2022 (doi:10.1038/s41597-022-01779-4), MIT Lincoln Laboratory and A-Alpha Bio; data file from the FLAb repository.